Assay results from patent publication US6914122B2 (priority 2000, dated 2005).

Amino acid sequences for entries named in this document (tags omitted). Residues count along the entry.
UniProt P27958, 1027-1657 limits assumed: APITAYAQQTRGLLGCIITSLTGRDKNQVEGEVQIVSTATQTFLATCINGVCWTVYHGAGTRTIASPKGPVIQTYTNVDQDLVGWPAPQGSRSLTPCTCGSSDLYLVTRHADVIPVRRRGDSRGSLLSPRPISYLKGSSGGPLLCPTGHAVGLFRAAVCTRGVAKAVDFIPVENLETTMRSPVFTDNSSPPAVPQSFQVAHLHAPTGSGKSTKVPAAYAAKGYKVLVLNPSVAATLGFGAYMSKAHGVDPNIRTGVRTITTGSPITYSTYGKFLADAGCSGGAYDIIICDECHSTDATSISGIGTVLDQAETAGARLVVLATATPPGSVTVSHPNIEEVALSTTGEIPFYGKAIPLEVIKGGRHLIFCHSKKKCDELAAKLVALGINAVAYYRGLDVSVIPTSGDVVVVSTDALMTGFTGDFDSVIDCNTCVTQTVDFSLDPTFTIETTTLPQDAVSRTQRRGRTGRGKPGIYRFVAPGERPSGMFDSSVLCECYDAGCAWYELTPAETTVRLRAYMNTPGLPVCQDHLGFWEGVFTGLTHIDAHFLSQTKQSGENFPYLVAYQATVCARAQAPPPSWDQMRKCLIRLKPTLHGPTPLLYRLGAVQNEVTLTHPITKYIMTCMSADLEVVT
UniProt P27958, 1658-1711 partner limits assumed: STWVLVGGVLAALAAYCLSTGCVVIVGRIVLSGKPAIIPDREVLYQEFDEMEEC

Target: Recombinant heterodimeric HCV NS3/NS4A protease (strain 1a) (Hepatitis C virus genotype 1a, UniProt P27958)
Assay: biochemical
Parameters: species or system HCV (strain 1a)

| Compound | Ki [µM] |
| --- | --- |
| CCCC(NC(=O)C1Cc2cccc(c2)Oc2ccc(cc2)CC(NC(=O)OC(C)(C)C)C(=O)NC(C2CCCCC2)C(=O)N1)C(=O)C(=O)NCC(=O)OCc1ccccc1 (stereo not shown) [Example 27] | 1.1 to 100 |
| CCCC(NC(=O)C1Cc2cccc(c2)Oc2ccc(cc2)CC(NC(=O)OC(C)(C)C)C(=O)NC(C2CCCCC2)C(=O)N1)C(=O)C(=O)NCC(=O)NC(C(=O)O)c1ccccc1 (stereo not shown) [Example 26] | 1.1 to 100 |
| CCCC(NC(=O)C1Cc2cccc(c2)Oc2ccc(cc2)CCC(=O)NCC(=O)N1)C(=O)C(=O)NCC(=O)NC(C(=O)OC(C)(C)C)c1ccccc1 (stereo not shown) [Example 9] | 1.1 to 100 |
| CCCC(NC(=O)C1Cc2cccc(c2)Oc2ccc(cc2)CCC(=O)NC(C2CCCCC2)C(=O)N1)C(=O)C(=O)NCC(=O)NC(C(=O)OC(C)(C)C)c1ccccc1 (stereo not shown) [Example 1] | 1.1 to 100 |
